Target: Epidermal growth factor receptor (Homo sapiens, UniProt P00533)
Assay: Antagonism towards Epidermal growth factor receptor

By UniProt entry, the sequences of proteins in these tests, tags left out.
UniProt P00533, whole entry: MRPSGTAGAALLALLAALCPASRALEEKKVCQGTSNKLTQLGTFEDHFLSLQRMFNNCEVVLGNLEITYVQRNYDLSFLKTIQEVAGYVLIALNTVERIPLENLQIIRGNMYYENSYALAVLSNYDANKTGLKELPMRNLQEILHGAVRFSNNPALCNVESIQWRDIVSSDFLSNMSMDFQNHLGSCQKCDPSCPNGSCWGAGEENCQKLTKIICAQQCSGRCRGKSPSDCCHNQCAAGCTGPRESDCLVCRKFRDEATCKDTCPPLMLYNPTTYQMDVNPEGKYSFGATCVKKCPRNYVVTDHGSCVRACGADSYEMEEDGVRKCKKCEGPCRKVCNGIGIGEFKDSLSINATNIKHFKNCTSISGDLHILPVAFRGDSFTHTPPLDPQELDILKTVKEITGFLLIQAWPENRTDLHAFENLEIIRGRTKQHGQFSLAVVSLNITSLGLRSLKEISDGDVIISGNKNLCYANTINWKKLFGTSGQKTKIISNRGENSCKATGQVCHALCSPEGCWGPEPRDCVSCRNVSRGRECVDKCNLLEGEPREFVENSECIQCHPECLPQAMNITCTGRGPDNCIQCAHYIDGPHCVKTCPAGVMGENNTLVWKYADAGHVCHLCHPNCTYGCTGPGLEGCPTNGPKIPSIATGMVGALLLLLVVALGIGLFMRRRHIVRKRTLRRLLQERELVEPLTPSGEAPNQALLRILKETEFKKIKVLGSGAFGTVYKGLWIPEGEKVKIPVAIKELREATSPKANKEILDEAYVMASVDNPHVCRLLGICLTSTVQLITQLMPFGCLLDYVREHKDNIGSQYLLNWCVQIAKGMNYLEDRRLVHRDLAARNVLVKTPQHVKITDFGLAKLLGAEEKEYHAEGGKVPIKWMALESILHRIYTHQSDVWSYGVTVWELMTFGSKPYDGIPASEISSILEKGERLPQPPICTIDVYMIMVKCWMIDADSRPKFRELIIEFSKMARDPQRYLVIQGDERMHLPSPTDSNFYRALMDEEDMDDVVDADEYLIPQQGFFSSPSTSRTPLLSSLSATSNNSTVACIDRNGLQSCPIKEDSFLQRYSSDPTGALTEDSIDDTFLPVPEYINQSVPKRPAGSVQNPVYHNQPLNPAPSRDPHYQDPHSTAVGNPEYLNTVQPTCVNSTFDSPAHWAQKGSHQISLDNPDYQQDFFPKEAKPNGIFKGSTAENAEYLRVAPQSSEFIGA

COc1cc2ncnc(Nc3cc(OC)c(OC)c(OC)c3)c2cc1OC
IC50: 500 nM
